US12202866B2, “Therapeutic nanoconjugates and uses thereof” (UNIVERSITAT AUTÒNOMA DE BARCELONA (UAB), priority 2017, dated 2025)

What was measured:
[1] = Biodistribution and toxicity in normal organs, bone marrow and circulating blood cells; assay type: in vivo, mouse; settings: after a 100 μg dose
Method: The T22-GFP-H6-FdU uptake measuring fluorescence emission, in bone marrow and circulating blood cells, was assessed 5 h after the administration of T22-GFP-H6-FdU at 10-100 μg doses. At necropsy, bone marrow was extracted and registered ex vivo in the IVIS® 200-Spectrum equipment. Mouse blood was collected by punction in the maxillary plexus. The erythrocytes, leucocytes and platelets were isolated by the Ficoll density gradient method using the standard protocol. Further, pellets were obtained by centrifugation of the isolated cell extracts at 600 g, 10 min and then recorded to measure fluorescence using IVIS® 200-Spectrum.
The T22-GFP-H6-FdU uptake was assessed by measuring the green fluorescence emitted by the GFP domain of the nanoconjugate, as well as DNA DSBs and apoptotic induction in normal (non-tumor) tissues using the methodology described above. In addition, two independent observers evaluated the possible histopathological alterations observed in H&E stained non-tumor tissue samples, searching for signs of toxicity.

[2] = test system: subcutaneous CXCR4^+ SW1417 CRC tumor; assay: Tumor uptake and tumor cell internalization in subcutaneous CXCR4+ SW1417 CRC model; settings: 5 h after a 100 μg dose

T22-GFP-H6-FdU: nanoconjugate of T22-GFP-H6 protein nanoparticle covalently bound via maleimide linker to thiol-functionalized pentameric floxuridine oligonucleotide (oligo-FdU)
uptake in CXCR4 positive (bone marrow, spleen) or CXCR4 negative (kidney, lung, brain, heart or liver) normal tissues by fluorescence emission [1]: undetectable, except for a transient accumulation in the liver | Tumor/Liver ratio of emitted fluorescence [2]: 7.5
